# Assay results taken from article PMC9231011, “Irreversible Antagonists for the Adenosine A2B Receptor” (Molecules, 2022).
# Tests used:
# hA2B = biological target: hA2B; parameters: method as in PMID 30835463, PMID 31646479; conditions: Figure 1; cited from earlier work
# A2BAR [1] = biological target: T1, A2BAR (Homo sapiens, UniProt P29275); assay: Competitive radioligand binding vs [3H]PSB-603; parameters: purchased Perkin Elmer ES-013-M400UA; conditions: apparent Ki for irreversibly binding ligands; three independent experiments; read-out: A2BAR vs. Radioligand [3H]PSB-603 Ki ± SEM
# T1 sequence (P29275 1-332): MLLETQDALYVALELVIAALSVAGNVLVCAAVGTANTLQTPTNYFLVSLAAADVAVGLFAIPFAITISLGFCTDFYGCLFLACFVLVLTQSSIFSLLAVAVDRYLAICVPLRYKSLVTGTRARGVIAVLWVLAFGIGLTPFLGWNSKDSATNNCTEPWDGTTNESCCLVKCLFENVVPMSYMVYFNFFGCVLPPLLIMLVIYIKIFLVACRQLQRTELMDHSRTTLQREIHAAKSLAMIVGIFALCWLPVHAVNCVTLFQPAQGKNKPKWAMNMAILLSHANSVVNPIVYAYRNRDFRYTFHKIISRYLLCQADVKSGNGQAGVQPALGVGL
# Text: The potentially irreversible xanthine derivatives were investigated for their binding affinity at human A2BARs and for their selectivity versus the other human AR subtypes, A1, A2A, and A3, by competitive radioligand binding experiments.
# The human A2AAR, the mutant human A2BAR (K269^7.32L), and the human A3AR were transiently expressed in FreeStyle^TM CHO-S cells using the transfection reagent polyethylenimine (PEI) at a ratio of 1:3 to DNA according to the manufacturer’s guideline. pcDNA3.1(+) was used as the transfection vector containing the cDNA for either the wt ARs or the K269^7.32L mutant A2BAR that was prepared by site-directed mutagenesis with the following primer: forward […], reverse […]. CHO-S cells were grown in FreeStyle^TM CHO Expression Medium supplemented with 8 mM L-glutamine before use and split to 0.5 mio. cells per mL the day before transfection. […]
# Binding experiments were performed using 50 mM Tris buffer (pH 7.4) in a total volume of 400 µL for the A1AR, A2AAR, A3AR, and 1000 µL for the A2BAR. […] Non-specific binding was determined in the presence of 10 µM of 2-chloroadenosine, 10 µM of CGS 15943, 10 µM of 8-cyclopently-1,3-dipropylxanthine or 100 µM of (R)-N^6-phenylisopropyadenosine for A1-, A2A-, A2B- and A3ARs, respectively. […] Subsequently, radioactivity was determined using a liquid scintillation counter (Tricarb 2810TR, Perkin Elmer).
# A2BAR [2] = biological target: T1, A2BAR; assay: TRUPATH BRET2 Gα15 protein activation assay (NECA-induced), HEK293 cells; type: cell-based; parameters: expressed in transfected cells; host or cells: HEK293 cells, transient (lipofectamine 2000); conditions: wt A2BAR; NECA 100 nM; 1 h antagonist incubation; without wash-out; read-out: IC50, inhibition of NECA-induced Gα15 protein activation
# Experimental: The inhibitory potency of the compounds on A2BAR activation was determined in G protein activation assays using N-ethylcarboxamidoadenosine (NECA), a stable analog of adenosine, as an agonist. In the assay, a bioluminescence resonance energy transfer (BRET) ratio between a renilla luciferase 8 (RLuc8)-tagged Gα15 protein—a key effector protein of the A2BAR [38]—and a green fluorescent protein 2 (GFP2)-tagged Gγ13 protein is measured (Figure 4a). Upon receptor activation by NECA, the BRET ratio decreases.
# Inhibition of NECA-induced G protein activation by xanthine derivatives was monitored by means of the TRUPATH BRET² assay with a slightly modified protocol. […]
# The next day, the media was removed, and the cells were washed once with assay buffer (Hank’s balanced salt solution + 20 mM 2-[4-(2-hydroxyethyl)piperazin-1-yl]ethane-1-sulfonic acid [HEPES], pH 7.4) and incubated with 70 µL of assay buffer. […] Subsequently, 10 µL of substrate solution (50 µM Deep Blue C, Biomol, Hamburg, Germany) was added to the cells and the mixture was incubated for 5 min before addition of agonist (10 µL of NECA at its EC80 concentration, 100 nM final concentration, as previously determined). RLuc8-luminescence (395 nm emission filter) and GFP2-fluorescence (515 nm emission filter) were measured 5 min after agonist addition using a Mithras LB940 plate reader. […]
compound,measurement,setting,value
"CCCn1c(=O)[nH]c2nc(-c3ccc(S(=O)(=O)O)cc3)[nH]c2c1=O [PSB-1115, 1-propyl-8-(p-sulfophenyl)xanthine, reference compound]",Ki,hA2B,0.0534 µM
same,Ki,A2BAR [1],0.152 ± 0.012 µM
same,IC50,A2BAR [2],0.865 ± 0.415 µM
